Assays:
3NP-intoxicated mice = assay: 3NP murine model of Huntington's disease, behavioral score; format: in vivo; details: oral and intraperitoneal; I 10 mg/Kg both routes; sodium salt 30 mg/Kg oral, 10 mg/Kg i.p.; tested form: sodium salt
Protocol: Mice were subjected to behavioral tests for determining their neurological status after the treatment with oral cannabigerol quinone acid (I) (10 mg/Kg dissolved in sesame oil) and after intraperitoneal delivery (10 mg/Kg dissolved in ethanol/cremophor/saline). Hind limb clasping, Locomotor activity, and kyphosis were rated from 0 to 2 based on severity: a score of 0 typically indicates normal function and 2 seriously affected.
Mice were subjected to behavioral tests for determining their neurological status after the treatment with oral sodium salt of the cannabigerol quinone acid (30 mg/Kg dissolved saline) and after intraperitoneal delivery (10 mg/Kg dissolved in saline). Hind limb clasping, Locomotor activity, and kyphosis were rated from 0 to 2 based on severity: a score of 0 typically indicates normal function and 2 seriously affected. […]
Lesions of the striatum were induced with 3-NP in adult (16-week-old; 30 g) male C57BL/6 mice (Harlan Ibérica, Barcelona, Spain). […] We evaluated the general locomotor activity, the hindlimb clasping and dystonia, and the truncal dystonia. […]

Chains of the proteins cited; added tags and fusions are not shown. Residues count along the entry.
UniProt P37231, 238-505 limits assumed: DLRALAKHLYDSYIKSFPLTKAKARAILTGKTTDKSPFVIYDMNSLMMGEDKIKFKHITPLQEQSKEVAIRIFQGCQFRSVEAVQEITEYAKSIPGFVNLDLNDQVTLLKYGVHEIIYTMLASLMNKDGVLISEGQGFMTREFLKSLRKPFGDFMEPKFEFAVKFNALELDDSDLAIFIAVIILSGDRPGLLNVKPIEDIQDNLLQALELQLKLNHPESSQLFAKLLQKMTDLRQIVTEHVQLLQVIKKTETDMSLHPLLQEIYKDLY

PPARγ = PPARγ (Homo sapiens, UniProt P37231); assay: PolarScreen PPAR Competitor Assay (PPARγ binding, fluorescence polarization)

CCCCCC1=C(C(=O)O)C(=O)C(C/C=C(\C)CCC=C(C)C)=C(O)C1=O [I, cannabigerol quinone acid]
clinical symptoms induced by 3-NP intoxication (behavioral score: hind limb clasping, locomotor activity, kyphosis) (3NP-intoxicated mice): clearly alleviates the clinical symptoms | Relative affinity for PPARγ, percentage of polarization (PPARγ; compound concentration 0.01 ∝M, tested form: 2-(dimethylamino)ethanol salt): 95.7% | Relative affinity for PPARγ, percentage of polarization (PPARγ; compound concentration 0.01 ∝M, tested form: L-arginine salt): 99.0% | Relative affinity for PPARγ, percentage of polarization (PPARγ; compound concentration 0.01 ∝M, tested form: L-lysine salt): 95.2% | Relative affinity for PPARγ, percentage of polarization (PPARγ; compound concentration 0.01 ∝M, tested form: benzathine salt): 81.3% | Relative affinity for PPARγ, percentage of polarization (PPARγ; compound concentration 0.01 ∝M, tested form: calcium salt): 95.1% | Relative affinity for PPARγ, percentage of polarization (PPARγ; compound concentration 0.01 ∝M, tested form: dicyclohexylamine salt): 113.2% | Relative affinity for PPARγ, percentage of polarization (PPARγ; compound concentration 0.01 ∝M, tested form: ethylenediamine salt): 95.0% | Relative affinity for PPARγ, percentage of polarization (PPARγ; compound concentration 0.01 ∝M, tested form: meglumine salt): 95.4% | Relative affinity for PPARγ, percentage of polarization (PPARγ; compound concentration 0.01 ∝M, tested form: potassium salt): 99.3% | Relative affinity for PPARγ, percentage of polarization (PPARγ; compound concentration 0.01 ∝M, tested form: sodium salt): 99.6% | Relative affinity for PPARγ, percentage of polarization (PPARγ; compound concentration 0.01 ∝M, tested form: tromethamine salt): 95.9% | Relative affinity for PPARγ, percentage of polarization (PPARγ; compound concentration 0.05 ∝M, tested form: 2-(dimethylamino)ethanol salt): 94.0% | Relative affinity for PPARγ, percentage of polarization (PPARγ; compound concentration 0.05 ∝M, tested form: L-arginine salt): 95.9% | Relative affinity for PPARγ, percentage of polarization (PPARγ; compound concentration 0.05 ∝M, tested form: L-lysine salt): 94.3% | Relative affinity for PPARγ, percentage of polarization (PPARγ; compound concentration 0.05 ∝M, tested form: benzathine salt): 83.4% | Relative affinity for PPARγ, percentage of polarization (PPARγ; compound concentration 0.05 ∝M, tested form: calcium salt): 91.7% | Relative affinity for PPARγ, percentage of polarization (PPARγ; compound concentration 0.05 ∝M, tested form: dicyclohexylamine salt): 96.3% | Relative affinity for PPARγ, percentage of polarization (PPARγ; compound concentration 0.05 ∝M, tested form: ethylenediamine salt): 95.6% | Relative affinity for PPARγ, percentage of polarization (PPARγ; compound concentration 0.05 ∝M, tested form: meglumine salt): 94.2% | Relative affinity for PPARγ, percentage of polarization (PPARγ; compound concentration 0.05 ∝M, tested form: potassium salt): 99.1% | Relative affinity for PPARγ, percentage of polarization (PPARγ; compound concentration 0.05 ∝M, tested form: sodium salt): 101.6% | Relative affinity for PPARγ, percentage of polarization (PPARγ; compound concentration 0.05 ∝M, tested form: tromethamine salt): 98.8% | Relative affinity for PPARγ, percentage of polarization (PPARγ; compound concentration 0.1 ∝M, tested form: 2-(dimethylamino)ethanol salt): 93.6% | Relative affinity for PPARγ, percentage of polarization (PPARγ; compound concentration 0.1 ∝M, tested form: L-arginine salt): 92.8% | Relative affinity for PPARγ, percentage of polarization (PPARγ; compound concentration 0.1 ∝M, tested form: L-lysine salt): 93.3% | Relative affinity for PPARγ, percentage of polarization (PPARγ; compound concentration 0.1 ∝M, tested form: benzathine salt): 75.7% | Relative affinity for PPARγ, percentage of polarization (PPARγ; compound concentration 0.1 ∝M, tested form: calcium salt): 86.0% | Relative affinity for PPARγ, percentage of polarization (PPARγ; compound concentration 0.1 ∝M, tested form: dicyclohexylamine salt): 87.4% | Relative affinity for PPARγ, percentage of polarization (PPARγ; compound concentration 0.1 ∝M, tested form: ethylenediamine salt): 98.6% | Relative affinity for PPARγ, percentage of polarization (PPARγ; compound concentration 0.1 ∝M, tested form: meglumine salt): 94.9% | Relative affinity for PPARγ, percentage of polarization (PPARγ; compound concentration 0.1 ∝M, tested form: potassium salt): 97.9% | Relative affinity for PPARγ, percentage of polarization (PPARγ; compound concentration 0.1 ∝M, tested form: sodium salt): 101.6% | Relative affinity for PPARγ, percentage of polarization (PPARγ; compound concentration 0.1 ∝M, tested form: tromethamine salt): 96.1% | Relative affinity for PPARγ, percentage of polarization (PPARγ; compound concentration 0.5 ∝M, tested form: 2-(dimethylamino)ethanol salt): 77.4% | Relative affinity for PPARγ, percentage of polarization (PPARγ; compound concentration 0.5 ∝M, tested form: L-arginine salt): 68.3% | Relative affinity for PPARγ, percentage of polarization (PPARγ; compound concentration 0.5 ∝M, tested form: L-lysine salt): 94.7% | Relative affinity for PPARγ, percentage of polarization (PPARγ; compound concentration 0.5 ∝M, tested form: benzathine salt): 38.9% | Relative affinity for PPARγ, percentage of polarization (PPARγ; compound concentration 0.5 ∝M, tested form: calcium salt): 60.2% | Relative affinity for PPARγ, percentage of polarization (PPARγ; compound concentration 0.5 ∝M, tested form: dicyclohexylamine salt): 54.0% | Relative affinity for PPARγ, percentage of polarization (PPARγ; compound concentration 0.5 ∝M, tested form: ethylenediamine salt): 91.7% | Relative affinity for PPARγ, percentage of polarization (PPARγ; compound concentration 0.5 ∝M, tested form: meglumine salt): 88.3% | Relative affinity for PPARγ, percentage of polarization (PPARγ; compound concentration 0.5 ∝M, tested form: potassium salt): 90.9% | Relative affinity for PPARγ, percentage of polarization (PPARγ; compound concentration 0.5 ∝M, tested form: sodium salt): 90.9% | Relative affinity for PPARγ, percentage of polarization (PPARγ; compound concentration 0.5 ∝M, tested form: tromethamine salt): 80.5% | Relative affinity for PPARγ, percentage of polarization (PPARγ; compound concentration 1 ∝M, tested form: 2-(dimethylamino)ethanol salt): 57.9% | Relative affinity for PPARγ, percentage of polarization (PPARγ; compound concentration 1 ∝M, tested form: L-arginine salt): 44.3% | Relative affinity for PPARγ, percentage of polarization (PPARγ; compound concentration 1 ∝M, tested form: L-lysine salt): 92.3% | Relative affinity for PPARγ, percentage of polarization (PPARγ; compound concentration 1 ∝M, tested form: benzathine salt): 45.6% | Relative affinity for PPARγ, percentage of polarization (PPARγ; compound concentration 1 ∝M, tested form: calcium salt): 41.4% | Relative affinity for PPARγ, percentage of polarization (PPARγ; compound concentration 1 ∝M, tested form: dicyclohexylamine salt): 54.2% | Relative affinity for PPARγ, percentage of polarization (PPARγ; compound concentration 1 ∝M, tested form: ethylenediamine salt): 68.4% | Relative affinity for PPARγ, percentage of polarization (PPARγ; compound concentration 1 ∝M, tested form: meglumine salt): 73.1% | Relative affinity for PPARγ, percentage of polarization (PPARγ; compound concentration 1 ∝M, tested form: potassium salt): 74.3% | Relative affinity for PPARγ, percentage of polarization (PPARγ; compound concentration 1 ∝M, tested form: sodium salt): 76.7% | Relative affinity for PPARγ, percentage of polarization (PPARγ; compound concentration 1 ∝M, tested form: tromethamine salt): 73.0% | Relative affinity for PPARγ, percentage of polarization (PPARγ; compound concentration 5 ∝M, tested form: 2-(dimethylamino)ethanol salt): 19.3% | Relative affinity for PPARγ, percentage of polarization (PPARγ; compound concentration 5 ∝M, tested form: L-arginine salt): 16.3% | Relative affinity for PPARγ, percentage of polarization (PPARγ; compound concentration 5 ∝M, tested form: L-lysine salt): 76.5% | Relative affinity for PPARγ, percentage of polarization (PPARγ; compound concentration 5 ∝M, tested form: benzathine salt): 24.9% | Relative affinity for PPARγ, percentage of polarization (PPARγ; compound concentration 5 ∝M, tested form: dicyclohexylamine salt): 19.3% | Relative affinity for PPARγ, percentage of polarization (PPARγ; compound concentration 5 ∝M, tested form: ethylenediamine salt): 33.2% | Relative affinity for PPARγ, percentage of polarization (PPARγ; compound concentration 5 ∝M, tested form: meglumine salt): 37.2% | Relative affinity for PPARγ, percentage of polarization (PPARγ; compound concentration 5 ∝M, tested form: potassium salt): 33.1% | Relative affinity for PPARγ, percentage of polarization (PPARγ; compound concentration 5 ∝M, tested form: sodium salt): 37.5% | Relative affinity for PPARγ, percentage of polarization (PPARγ; compound concentration 5 ∝M, tested form: tromethamine salt): 34.9% | Relative affinity for PPARγ, percentage of polarization (PPARγ; compound concentration 10 ∝M, tested form: 2-(dimethylamino)ethanol salt): 15.9% | Relative affinity for PPARγ, percentage of polarization (PPARγ; compound concentration 10 ∝M, tested form: L-arginine salt): 14.1% | Relative affinity for PPARγ, percentage of polarization (PPARγ; compound concentration 10 ∝M, tested form: L-lysine salt): 6.9% | Relative affinity for PPARγ, percentage of polarization (PPARγ; compound concentration 10 ∝M, tested form: benzathine salt): 22.9% | Relative affinity for PPARγ, percentage of polarization (PPARγ; compound concentration 10 ∝M, tested form: calcium salt): 22.5% | Relative affinity for PPARγ, percentage of polarization (PPARγ; compound concentration 10 ∝M, tested form: dicyclohexylamine salt): 20.9% | Relative affinity for PPARγ, percentage of polarization (PPARγ; compound concentration 10 ∝M, tested form: meglumine salt): 20.6% | Relative affinity for PPARγ, percentage of polarization (PPARγ; compound concentration 10 ∝M, tested form: potassium salt): 19.0% | Relative affinity for PPARγ, percentage of polarization (PPARγ; compound concentration 10 ∝M, tested form: sodium salt): 21.7% | Relative affinity for PPARγ, percentage of polarization (PPARγ; compound concentration 10 ∝M, tested form: tromethamine salt): 23.2% | Relative affinity for PPARγ, percentage of polarization (PPARγ; compound concentration 25 ∝M, tested form: 2-(dimethylamino)ethanol salt): 17.2% | Relative affinity for PPARγ, percentage of polarization (PPARγ; compound concentration 25 ∝M, tested form: L-arginine salt): 17.8% | Relative affinity for PPARγ, percentage of polarization (PPARγ; compound concentration 25 ∝M, tested form: L-lysine salt): 27.4% | Relative affinity for PPARγ, percentage of polarization (PPARγ; compound concentration 25 ∝M, tested form: benzathine salt): 22.9% | Relative affinity for PPARγ, percentage of polarization (PPARγ; compound concentration 25 ∝M, tested form: calcium salt): 24.9% | Relative affinity for PPARγ, percentage of polarization (PPARγ; compound concentration 25 ∝M, tested form: dicyclohexylamine salt): 29.0% | Relative affinity for PPARγ, percentage of polarization (PPARγ; compound concentration 25 ∝M, tested form: ethylenediamine salt): 16.1% | Relative affinity for PPARγ, percentage of polarization (PPARγ; compound concentration 25 ∝M, tested form: meglumine salt): 15.3% | Relative affinity for PPARγ, percentage of polarization (PPARγ; compound concentration 25 ∝M, tested form: potassium salt): 16.7% | Relative affinity for PPARγ, percentage of polarization (PPARγ; compound concentration 25 ∝M, tested form: sodium salt): 17.2% | Relative affinity for PPARγ, percentage of polarization (PPARγ; compound concentration 25 ∝M, tested form: tromethamine salt): 26.1% | Relative affinity for PPARγ, percentage of polarization (PPARγ; compound concentration 50 ∝M, tested form: 2-(dimethylamino)ethanol salt): 23.6% | Relative affinity for PPARγ, percentage of polarization (PPARγ; compound concentration 50 ∝M, tested form: L-arginine salt): 22.1% | Relative affinity for PPARγ, percentage of polarization (PPARγ; compound concentration 50 ∝M, tested form: L-lysine salt): 15.8% | Relative affinity for PPARγ, percentage of polarization (PPARγ; compound concentration 50 ∝M, tested form: benzathine salt): 27.0% | Relative affinity for PPARγ, percentage of polarization (PPARγ; compound concentration 50 ∝M, tested form: calcium salt): 45.4% | Relative affinity for PPARγ, percentage of polarization (PPARγ; compound concentration 50 ∝M, tested form: dicyclohexylamine salt): 104.9% | Relative affinity for PPARγ, percentage of polarization (PPARγ; compound concentration 50 ∝M, tested form: ethylenediamine salt): 16.1% | Relative affinity for PPARγ, percentage of polarization (PPARγ; compound concentration 50 ∝M, tested form: meglumine salt): 13.7% | Relative affinity for PPARγ, percentage of polarization (PPARγ; compound concentration 50 ∝M, tested form: potassium salt): 19.0% | Relative affinity for PPARγ, percentage of polarization (PPARγ; compound concentration 50 ∝M, tested form: sodium salt): 19.1% | Relative affinity for PPARγ, percentage of polarization (PPARγ; compound concentration 50 ∝M, tested form: tromethamine salt): 30.9%

— patent US20220041538A1, “CA[…] ACID AND SALTS THEREOF” (EMERALD HEALTH PHARMACEUTICALS INC, priority 2018, published 2022)
